How the values were obtained:
[1] = Circular dichroism spectroscopy, helical residues per peptide chain; assay type: physicochemical; conditions: hPTH(1-31)NH2 analogs; calculated from [θ]222
Description: Circular Dichroism—CD spectra were obtained on a JASCO J-600 spectropolarimeter at 20° C. Four spectra were averaged and the data smoothed by the JASCO software. The instrument was calibrated with ammonium (+)-10-camphorsulfonate. Peptide concentrations were verified from the absorption at 280 nm, using an extinction coefficient of 5700 M^−1 for the single tryptophan. Data are expressed as the number of helical residues per peptide chain, as calculated from −[θ]222×30/28,000, where [θ]222 is the mean residue elipticity ([θ]) at 222 nm, as was described previously (Barbier, J. R., et al. (2005) J Biol Chem. 280:23771-23777).

intact human PTHR = molecular target: T1, intact human PTHR (Homo sapiens, UniProt Q03431); assay: Stimulation of inositol phosphate production in transfected COS-7 cells; assay type: cell-based; conditions: 1×10^−6 M; COS-7 cells transfected with the PTHR
T1 sequence (Q03431 27-593): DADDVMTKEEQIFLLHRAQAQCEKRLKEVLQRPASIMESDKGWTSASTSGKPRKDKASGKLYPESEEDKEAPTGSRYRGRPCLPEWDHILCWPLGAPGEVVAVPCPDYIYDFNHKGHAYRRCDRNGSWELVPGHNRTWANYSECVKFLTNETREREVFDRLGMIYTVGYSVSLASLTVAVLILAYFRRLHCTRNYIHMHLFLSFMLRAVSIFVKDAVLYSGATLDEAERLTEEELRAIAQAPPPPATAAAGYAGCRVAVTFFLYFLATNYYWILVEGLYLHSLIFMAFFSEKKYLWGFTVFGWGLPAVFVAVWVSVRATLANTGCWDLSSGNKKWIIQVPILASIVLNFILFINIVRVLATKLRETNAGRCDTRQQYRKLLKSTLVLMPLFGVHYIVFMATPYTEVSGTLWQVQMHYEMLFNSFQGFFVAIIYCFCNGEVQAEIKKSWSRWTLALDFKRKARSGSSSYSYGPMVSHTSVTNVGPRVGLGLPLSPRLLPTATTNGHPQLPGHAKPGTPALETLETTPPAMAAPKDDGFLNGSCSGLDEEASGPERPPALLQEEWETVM
Description: Stimulation of intracellular cAMP and inositol phosphate—The capacities of the ligands to stimulate adenylyl cyclase activity were assessed in intact ROS 17/2.8 cells, as described (Shimizu, M., (2001) Endocrinology 142:3068-3074). In brief, cells in 24-well plates were incubated in binding buffer containing the phosphodiesterase inhibitor, IBMX, with or without a peptide ligand (3×10^−9 to 1×10^−5 M) for 30 minutes at room temperature. The medium was removed and the cells were lysed by adding 50 mM HCl and freezing the plate on dry ice. The cAMP in the thawed lysate was then quantified by radioimmuno assay. The stimulation of production of inositol phosphates (IP1+IP2+IP3) was assessed in COS-7 cells transfected with the intact human PTHR, as described previously (Shimizu, M., (2001) Endocrinology 142:3068-3074). In brief, intact transfected COS-7 cells in 24-well plates were labeled with ^3H-myo-inositol (specific activity: 25 Ci/mmol, Perkin Elmer/NEN Life Science Products, Boston, Mass.) for 16 hours, treated for 30 minutes with ligand in the presence of LiCl2 (30 mM), treated with ice cold trichloroacetic acid (5%) for two hours; the acid lysates were then ether extracted, separated by ion-exchange chromatography, and eluted ^3H-inositol phosphates were quantified by liquid scintillation counting. […]

CC[C@H](C)[C@H](NC(=O)[C@H](CCC(=O)O)NC(=O)[C@H](CO)NC(=O)[C@@H](NC(=O)[C@@H](N)CO)C(C)C)C(=O)N[C@@H](CCC(N)=O)C(=O)N[C@@H](CC(C)C)C(=O)N[C@@H](CCSC)C(=O)N[C@@H](Cc1c[nH]cn1)C(=O)N[C@@H](CC(N)=O)C(=O)N[C@@H](CC(C)C)C(=O)NCC(=O)N[C@@H](CCCCN)C(=O)N[C@@H](Cc1c[nH]cn1)C(=O)N[C@@H](CC(C)C)C(=O)N[C@@H](CC(N)=O)C(=O)N[C@@H](CO)C(=O)N[C@@H](CCSC)C(=O)N[C@@H](CCC(=O)O)C(=O)N[C@@H](CCCNC(=N)N)C(=O)N[C@H](C(=O)N[C@@H](CCC(=O)O)C(=O)N[C@@H](Cc1c[nH]c2ccccc12)C(=O)N[C@@H](CC(C)C)C(=O)N[C@@H](CCCNC(=N)N)C(=O)N[C@@H](CCCCN)C(=O)N[C@@H](CCCCN)C(=O)N[C@@H](CC(C)C)C(=O)N[C@@H](CCC(N)=O)C(=O)N[C@@H](CC(=O)O)C(=O)N[C@H](C(N)=O)C(C)C)C(C)C [PTH(1-31)NH2, reference compound]
CD helical residues [1]: 8
increase in total IP levels (intact human PTHR): four-fold increase

Reference: patent US8143374B2, “Polypeptide derivatives of parathyroid hormone (PTH)” (The General Hospital Corporation, priority 2006, dated 2012)
